Laboratory results as given in article PMC5177629, “Selective Estrogen Receptor Modulators: Cannabinoid Receptor Inverse Agonists with Differential CB1 and CB2 Selectivity” (Frontiers in Pharmacology, 2016).

Chains of the proteins cited; added tags and fusions are not shown.
UniProt P21554, whole entry: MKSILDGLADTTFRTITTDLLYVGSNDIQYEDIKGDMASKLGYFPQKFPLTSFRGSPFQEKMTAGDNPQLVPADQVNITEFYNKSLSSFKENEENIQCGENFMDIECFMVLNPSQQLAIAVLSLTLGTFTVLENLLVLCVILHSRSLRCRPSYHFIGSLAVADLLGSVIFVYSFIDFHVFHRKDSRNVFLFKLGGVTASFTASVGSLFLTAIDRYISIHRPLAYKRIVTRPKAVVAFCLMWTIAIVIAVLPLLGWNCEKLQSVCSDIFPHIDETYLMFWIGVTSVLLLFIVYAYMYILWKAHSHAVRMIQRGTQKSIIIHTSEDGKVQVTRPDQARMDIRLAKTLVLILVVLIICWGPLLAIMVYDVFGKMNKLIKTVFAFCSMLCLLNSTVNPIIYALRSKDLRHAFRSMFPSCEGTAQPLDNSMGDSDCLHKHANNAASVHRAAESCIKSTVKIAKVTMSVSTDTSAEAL

Key:
[1] = biological target: T1, human cannabinoid type-1 receptors (hCB1) (Homo sapiens, UniProt P21554); assay: [35S]GTPγS binding, CHO-hCB1 membranes; assay type: biochemical; details: 10 μM
T1 construct: host or cells: CHO cells (CHO-hCB1), membranes or intact cells
Protocol: In short, pellets were thawed on ice, combined in a 40 ml glass Dounce homogenizer and homogenized in 20 ml of cold buffer (50 mM HEPES at pH 7.4, 3 mM MgCl2, and 1 mM EGTA) using 10 strokes. Homogenates were then centrifuged at 40,000 × g for 10 min at 4°C. After discarding the supernatant, pellets were homogenized and centrifuged twice more. Final pellets were re-suspended in ice-cold 50 mM HEPES, pH 7.4, aliquoted and stored at -80°C for future use. Protein concentration was determined the same day, prior to freezing, using BCA^TM Protein Assay (Thermo Fisher Scientific, Waltham, MA, USA).
Non-specific binding was defined by radioactivity remaining in the presence of 10 μM of non-radioactive GTPγS. All reactions were incubated for 30 min at 30°C, terminated by filtration through Whatman GF/B glass fiber filters (Brandel, Inc.) and followed by four 4 ml washes of ice cold filtration buffer (50 mM HEPES, pH 7.4) containing 0.1% bovine serum albumin. […] Final counts were determined using liquid scintillation spectrophotometry (Tri Carb 2100 TR Liquid Scintillation Analyzer, Packard Instrument Company, Meriden, CT, USA) after overnight incubation. […]
CBRs are coupled to Gi/Go type G-proteins. […] G-protein activation was quantified using employing [^35S]GTPγS, a non-hydrolyzable analog of GTP, that irreversibly binds to the G-proteins when activated.

[2] = biological target: T1, human cannabinoid type-1 receptors (hCB1); assay: Adenylyl cyclase assay (basal cAMP), intact CHO-hCB1 cells; assay type: cell-based; details: concentrations as high as 10 μM, data not shown
Protocol: Adenylyl cyclase activity was measured using intact CHO-hCB1 or CHO-hCB2 cells, similar to that previously reported ([Rajasekaran et al., 2013]). Briefly, cells cultured between passages 4 and 15 were seeded into 24-well plates at a concentration of 6.5 million cells per plate and incubated overnight in a humidified incubator maintained at 37°C and 5% CO2. Growth media was removed the next day and replaced with media containing […] [^3H]adenine, 0.9g/L NaCl, and 0.5 mM isobutyl-methyl-xanthine (IBMX) for 2–3 h. Radioactive media was then removed and each well treated with 0.5 ml of varying concentrations of SERM compounds in a Krebs-Ringer-HEPES solution (10 mM HEPES, 110 mM NaCl, 25 mM Glucose, 55 mM Sucrose, 5 mM KCl, 1 mM MgCl2, 1.8 mM CaCl2, pH 7.4) containing 0.5 mM IBMX and 10 μM forskolin. Plates were then floated in a 37°C water bath for 15 min before reactions were terminated by addition of 50 μL of 2.2 N HCl to each well.

In the case of `Cc1c(C(=O)NN2CCCCC2)nn(-c2ccc(Cl)cc2Cl)c1-c1ccc(I)cc1` [AM-251], the “reduction of basal G-protein activity, hCB1Rs” value [1] is reported as “over 30%” and the “effect on basal cAMP levels, CHO-hCB1 cells” value [2] is reported as “do not alter basal cAMP levels”.
